{"sequences": {"note": "The chains behind the UniProt entries cited, without tags or fusion partners. Where a name states a change or a piece, a line headed by the entry shows the natural chain unless it says otherwise.", "UniProt Q02294, whole entry": "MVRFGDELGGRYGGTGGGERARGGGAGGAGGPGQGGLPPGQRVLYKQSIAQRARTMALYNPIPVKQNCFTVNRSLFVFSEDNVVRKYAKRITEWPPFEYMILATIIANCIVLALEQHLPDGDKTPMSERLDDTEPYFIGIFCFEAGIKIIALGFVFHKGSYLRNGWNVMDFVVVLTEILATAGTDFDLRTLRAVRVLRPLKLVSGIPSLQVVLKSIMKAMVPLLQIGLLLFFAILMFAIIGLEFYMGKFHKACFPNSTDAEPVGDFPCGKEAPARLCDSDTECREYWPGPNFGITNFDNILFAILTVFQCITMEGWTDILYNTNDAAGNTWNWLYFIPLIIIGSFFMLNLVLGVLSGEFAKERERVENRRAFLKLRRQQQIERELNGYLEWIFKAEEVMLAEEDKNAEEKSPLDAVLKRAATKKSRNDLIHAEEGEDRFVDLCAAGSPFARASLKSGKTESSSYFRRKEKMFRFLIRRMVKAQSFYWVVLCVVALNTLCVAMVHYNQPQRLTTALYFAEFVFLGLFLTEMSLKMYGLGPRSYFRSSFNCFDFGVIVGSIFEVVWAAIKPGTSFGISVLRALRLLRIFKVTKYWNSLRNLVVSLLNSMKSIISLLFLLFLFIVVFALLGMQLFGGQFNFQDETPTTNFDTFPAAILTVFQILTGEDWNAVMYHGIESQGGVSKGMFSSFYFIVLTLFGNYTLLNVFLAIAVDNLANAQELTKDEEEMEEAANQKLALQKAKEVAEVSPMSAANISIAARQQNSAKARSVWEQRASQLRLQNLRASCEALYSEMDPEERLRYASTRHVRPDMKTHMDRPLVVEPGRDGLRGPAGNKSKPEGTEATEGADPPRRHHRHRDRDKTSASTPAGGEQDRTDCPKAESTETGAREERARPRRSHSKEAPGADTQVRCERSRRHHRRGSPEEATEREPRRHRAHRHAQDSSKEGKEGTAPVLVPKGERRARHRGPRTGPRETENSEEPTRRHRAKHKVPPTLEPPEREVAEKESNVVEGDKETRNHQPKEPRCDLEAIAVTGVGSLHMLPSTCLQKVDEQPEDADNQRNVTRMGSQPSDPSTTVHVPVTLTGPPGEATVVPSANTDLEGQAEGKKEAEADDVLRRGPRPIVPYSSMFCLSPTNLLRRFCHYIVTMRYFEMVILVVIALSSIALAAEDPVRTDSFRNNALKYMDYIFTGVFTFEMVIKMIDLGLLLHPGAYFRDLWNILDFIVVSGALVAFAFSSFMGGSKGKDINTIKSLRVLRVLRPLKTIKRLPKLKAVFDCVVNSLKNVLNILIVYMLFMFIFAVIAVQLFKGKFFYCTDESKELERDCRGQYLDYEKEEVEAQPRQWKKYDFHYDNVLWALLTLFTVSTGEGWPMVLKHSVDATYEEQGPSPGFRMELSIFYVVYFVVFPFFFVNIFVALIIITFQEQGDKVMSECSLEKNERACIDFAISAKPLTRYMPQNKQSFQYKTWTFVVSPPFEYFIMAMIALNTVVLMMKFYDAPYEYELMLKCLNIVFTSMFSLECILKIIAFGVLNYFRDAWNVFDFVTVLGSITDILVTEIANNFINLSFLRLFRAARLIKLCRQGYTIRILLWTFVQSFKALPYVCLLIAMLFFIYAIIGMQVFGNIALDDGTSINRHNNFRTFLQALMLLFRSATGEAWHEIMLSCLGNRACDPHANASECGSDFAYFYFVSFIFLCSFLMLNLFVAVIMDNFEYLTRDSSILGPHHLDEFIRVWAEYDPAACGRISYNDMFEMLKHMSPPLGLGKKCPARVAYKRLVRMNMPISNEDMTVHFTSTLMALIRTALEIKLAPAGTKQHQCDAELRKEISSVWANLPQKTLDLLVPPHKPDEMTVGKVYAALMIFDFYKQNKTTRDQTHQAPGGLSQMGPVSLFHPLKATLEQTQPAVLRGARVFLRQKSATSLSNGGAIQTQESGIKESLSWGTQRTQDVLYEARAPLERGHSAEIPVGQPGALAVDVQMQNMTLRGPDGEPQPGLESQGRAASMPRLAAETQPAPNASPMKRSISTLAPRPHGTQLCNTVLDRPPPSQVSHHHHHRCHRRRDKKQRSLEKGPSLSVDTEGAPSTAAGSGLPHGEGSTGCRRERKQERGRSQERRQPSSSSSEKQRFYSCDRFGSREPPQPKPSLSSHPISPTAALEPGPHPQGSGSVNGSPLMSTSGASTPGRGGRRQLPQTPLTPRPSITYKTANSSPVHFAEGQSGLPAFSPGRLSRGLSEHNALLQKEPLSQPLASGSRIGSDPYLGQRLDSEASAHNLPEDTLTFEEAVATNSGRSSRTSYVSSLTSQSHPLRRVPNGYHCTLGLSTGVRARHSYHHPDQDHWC", "UniProt P22002, whole entry": "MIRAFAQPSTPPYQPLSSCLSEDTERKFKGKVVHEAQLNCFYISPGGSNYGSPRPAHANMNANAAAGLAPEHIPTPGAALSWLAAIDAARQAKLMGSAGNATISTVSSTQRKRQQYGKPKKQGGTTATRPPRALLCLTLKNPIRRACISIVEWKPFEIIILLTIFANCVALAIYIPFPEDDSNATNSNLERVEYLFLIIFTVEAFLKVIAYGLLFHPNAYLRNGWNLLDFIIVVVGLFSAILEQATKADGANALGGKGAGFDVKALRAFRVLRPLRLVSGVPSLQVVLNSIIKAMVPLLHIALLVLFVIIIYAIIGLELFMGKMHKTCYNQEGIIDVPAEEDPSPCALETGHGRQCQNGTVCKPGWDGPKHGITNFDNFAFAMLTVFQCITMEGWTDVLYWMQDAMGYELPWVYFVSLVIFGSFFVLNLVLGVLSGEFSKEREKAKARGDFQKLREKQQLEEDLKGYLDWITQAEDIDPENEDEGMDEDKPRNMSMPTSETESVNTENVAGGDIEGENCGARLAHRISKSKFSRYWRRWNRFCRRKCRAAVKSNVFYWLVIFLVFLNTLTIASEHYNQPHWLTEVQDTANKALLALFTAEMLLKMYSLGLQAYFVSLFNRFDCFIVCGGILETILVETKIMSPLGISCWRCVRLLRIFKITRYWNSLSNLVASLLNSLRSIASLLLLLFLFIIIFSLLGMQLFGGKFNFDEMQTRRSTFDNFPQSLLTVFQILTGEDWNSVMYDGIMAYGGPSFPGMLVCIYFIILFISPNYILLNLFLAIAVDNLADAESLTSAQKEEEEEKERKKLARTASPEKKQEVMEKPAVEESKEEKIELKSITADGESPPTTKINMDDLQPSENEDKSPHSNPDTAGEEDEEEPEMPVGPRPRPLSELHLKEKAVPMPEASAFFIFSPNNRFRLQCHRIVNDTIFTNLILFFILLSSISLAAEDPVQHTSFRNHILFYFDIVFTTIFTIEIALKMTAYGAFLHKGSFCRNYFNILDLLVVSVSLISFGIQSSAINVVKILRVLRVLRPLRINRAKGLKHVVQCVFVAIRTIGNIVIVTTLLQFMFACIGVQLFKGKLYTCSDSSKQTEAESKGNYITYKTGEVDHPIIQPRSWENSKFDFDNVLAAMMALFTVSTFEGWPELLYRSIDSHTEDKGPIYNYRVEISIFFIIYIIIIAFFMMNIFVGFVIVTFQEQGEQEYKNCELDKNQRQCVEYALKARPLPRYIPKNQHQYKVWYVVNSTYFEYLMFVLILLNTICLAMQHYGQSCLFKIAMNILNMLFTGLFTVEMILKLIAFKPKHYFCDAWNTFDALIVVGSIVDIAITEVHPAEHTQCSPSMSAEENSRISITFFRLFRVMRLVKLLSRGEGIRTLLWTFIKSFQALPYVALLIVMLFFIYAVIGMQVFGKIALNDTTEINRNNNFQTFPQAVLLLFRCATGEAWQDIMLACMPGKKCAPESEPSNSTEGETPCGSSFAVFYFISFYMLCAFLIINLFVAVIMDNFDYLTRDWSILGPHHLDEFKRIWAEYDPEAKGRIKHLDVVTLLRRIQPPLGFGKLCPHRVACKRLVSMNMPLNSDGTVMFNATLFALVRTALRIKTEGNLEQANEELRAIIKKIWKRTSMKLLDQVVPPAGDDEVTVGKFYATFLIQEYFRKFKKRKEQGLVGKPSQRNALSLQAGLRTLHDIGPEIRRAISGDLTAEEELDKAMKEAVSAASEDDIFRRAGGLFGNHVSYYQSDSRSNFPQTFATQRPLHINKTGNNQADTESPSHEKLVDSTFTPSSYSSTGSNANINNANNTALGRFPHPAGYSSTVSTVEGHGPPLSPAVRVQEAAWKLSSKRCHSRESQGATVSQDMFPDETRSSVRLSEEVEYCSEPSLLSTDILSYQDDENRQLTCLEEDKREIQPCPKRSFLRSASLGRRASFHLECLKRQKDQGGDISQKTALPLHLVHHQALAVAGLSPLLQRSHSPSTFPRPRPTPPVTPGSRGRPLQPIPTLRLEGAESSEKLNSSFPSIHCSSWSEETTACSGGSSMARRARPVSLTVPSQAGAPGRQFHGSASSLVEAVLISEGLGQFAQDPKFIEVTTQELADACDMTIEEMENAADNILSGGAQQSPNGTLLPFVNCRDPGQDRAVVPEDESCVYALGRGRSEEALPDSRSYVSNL"}, "source": "patent US20040266784A1", "about": "“Calcium channel inhibitors comprising benzhydril spaced from piperazine” (priority 1998, published 2004)", "assay_type_in_all_cases": "cell-based", "key": {"[1]": {"biological_target": "T1, human α1G subunits (T-type channels) (Homo sapiens, UniProt O43497)", "T1 construct": "expressed in transfected cells", "assay": "Block of α1G T-type channels, patch clamp in HEK cell lines", "procedure": "Standard patch-clamp techniques were employed to identify blockers of T-type currents. Briefly, previously described HEK cell lines stably expressing human α1G subunits were used for all the recordings (passage #: 4-20, 37° C., 5% CO2). To obtain T-type currents, plastic dishes containing semi-confluent cells were positioned on the stage of a ZEISS AXIOVERT S100 microscope after replacing the culture medium with external solution (see below). Whole-cell patches were obtained using pipettes (borosilicate glass with filament, O.D.: 1.5 mm, I.D.: 0.86 mm, 10 cm length), fabricated on a SUTTER P-97 puller with resistance values of ˜5 MΩ (see below for internal medium).\nTest compounds were dissolved in external solution, 0.1-0.01% DMSO. After ˜10 min rest, they were applied by gravity close to the cell using a WPI microfil tubing. The “non-inactivating” pre-pulse was used to examine the resting block of a compound. The “inactivating” protocol was employed to study voltage-dependent block. However, the initial data were obtained using the non-inactivating protocol."}, "[2]": {"biological_target": "T2, rat N-type channels (α1B+α2δ+β1b subunits) (Rattus norvegicus, UniProt Q02294)", "T2 construct": "expressed in transfected cells", "assay": "Whole cell patch clamp, N-type calcium channel block in HEK 293 cells", "procedure": "(§1) Antagonist activity was measured using whole cell patch recordings on human embryonic kidney cells either stably or transiently expressing rat N-type channels (α1B+[…]+β1b subunits) with 5 mM barium as a charge carrier. Alternatively, cells either stably or transiently expressing rat L-type channels (α1C+α2δ+β1b cDNA subunits) and P/Q-type channels (α1A+α2δ+β1b cDNA subunits)\nHEK 293 cells were transfected by a standard calcium-phosphate-DNA coprecipitation method using the rat α1B+β1b+α2δ N-type calcium channel subunits in a vertebrate expression vector (for example, see Current Protocols in Molecular Biology).\n(§2) After an incubation period of from 24 to 72 hrs the culture medium was removed and replaced with external recording solution (see below). Whole cell patch clamp experiments were performed using an Axopatch 200B amplifier (Axon Instruments, Burlingame, Calif.) linked to an IBM compatible personal computer equipped with pCLAMP software. […] Current data shown were elicited by a train of 100 ms test pulses at 0.066 Hz from −100 mV and/or −80 mV to various potentials (min. −20 mV, max. +30 mV). Drugs were perfused directly into the vicinity of the cells using a microperfusion system.\nNormalized dose-response curves were fit (Sigmaplot 4.0, SPSS Inc., Chicago, Ill.) by the Hill equation to determine IC50 values. Steady-state inactivation curves were plotted as the normalized test pulse amplitude following 5 s inactivating prepulses at +10 mV increments.\nAlternatively, N-type calcium channels (α1B+α2δ+β1b cDNA subunits), L-type channels (α1C+α2δ+β1b cDNA subunits) and P/Q-type channels (α1A+α2δ+β1b cDNA subunits) were transiently expressed in HEK 293 cells. Briefly, cells were cultured in Dulbecco's modified eagle medium (DMEM) supplemented with 10% fetal bovine serum, 200 U/ml penicillin and 0.2 mg/ml streptomycin at 37° C. with 5% CO2. […] At 12 hours the medium was replaced and the cells transiently transfected using a standard calcium phosphate protocol and the appropriate calcium channel cDNAs. Fresh DMEM was supplied and the cells transferred to 28° C./5% CO2.\nWhole cell patch clamp experiments were performed using an Axopatch 200B amplifier (Axon Instruments, Burlingame, Calif.) linked to a personal computer equipped with pCLAMP software. […] Currents were typically elicited from a holding potential of −80 mV to +10 mV using Clampex software (Axon Instruments). […] The compounds were then applied during the low frequency pulse trains for two to three minutes to assess tonic block, and subsequently the pulse frequency was increased to 0.2 Hz to assess frequency dependent block. Data were analyzed using Clampfit (Axon Instruments) and SigmaPlot 4.0 (Jandel Scientific)."}, "[3]": {"biological_target": "T3, P/Q-type channels (α1A+α2δ+β1b cDNA subunits) (Rattus norvegicus, UniProt P54282)", "T3 construct": "expressed in transfected cells", "assay": "Whole cell patch clamp, P/Q-type calcium channel block in HEK 293 cells", "procedure": "as §1, §2\n(§3) Normalized dose-response curves were fit (Sigmaplot 4.0, SPSS Inc., Chicago, Ill.) by the Hill equation to determine IC50 values. […]\n(§4) Whole cell patch clamp experiments were performed using an Axopatch 200B amplifier (Axon Instruments, Burlingame, Calif.) linked to a personal computer equipped with pCLAMP software. […] Data were analyzed using Clampfit (Axon Instruments) and SigmaPlot 4.0 (Jandel Scientific)."}, "[4]": {"biological_target": "T4, rat L-type channels (α1C+α2δ+β1b cDNA subunits) (Rattus norvegicus, UniProt P22002)", "T4 construct": "expressed in transfected cells", "assay": "Whole cell patch clamp, L-type calcium channel block in HEK 293 cells", "procedure": "as §1, §2, §3, §4"}}}
{"smiles": "COc1c(C(C)(C)C)cc(C(=O)N2CCN(C(=O)CCCCC(c3ccc(F)cc3)c3ccc(F)cc3)CC2)cc1C(C)(C)C", "note": "[Compound P18, 1-[4-(3,5-di-tert-butyl-4-methoxy-benzoyl)-piperazi-1-yl]-6,6-bis-(4-fluoro-phenyl)-hexan-1-one]", "values": [{"measurement": "IC50", "setting": "[1]", "value": 22, "unit": "nM"}, {"measurement": "specificity for N-type channels as compared to L and P/Q-type", "setting": "[2]", "value": "selectively block N-type channels"}, {"measurement": "IC50", "setting": "[2]; IC50 for N-type Calcium Channel Block (0.067 Hz)", "value": 147, "unit": "nM"}, {"measurement": "IC50", "setting": "[2]; IC50 for N-type Calcium Channel Block (0.2 Hz)", "value": 89, "unit": "nM"}, {"measurement": "IC50", "setting": "[2]; N-type IC50", "value": 110, "unit": "nM"}, {"measurement": "IC50", "setting": "[3]", "value": 2170, "unit": "nM"}, {"measurement": "IC50", "setting": "[4]", "value": "> 100000", "unit": "nM"}]}
